Test results as given in patent US9205085B2, “Tricyclic amino containing compounds for treatment or prevention of symptoms associated with endocrine dysfunction” (Emory University, priority 2011, dated 2015).

Chains of the proteins cited; added tags and fusions are not shown.
UniProt P61073, whole entry: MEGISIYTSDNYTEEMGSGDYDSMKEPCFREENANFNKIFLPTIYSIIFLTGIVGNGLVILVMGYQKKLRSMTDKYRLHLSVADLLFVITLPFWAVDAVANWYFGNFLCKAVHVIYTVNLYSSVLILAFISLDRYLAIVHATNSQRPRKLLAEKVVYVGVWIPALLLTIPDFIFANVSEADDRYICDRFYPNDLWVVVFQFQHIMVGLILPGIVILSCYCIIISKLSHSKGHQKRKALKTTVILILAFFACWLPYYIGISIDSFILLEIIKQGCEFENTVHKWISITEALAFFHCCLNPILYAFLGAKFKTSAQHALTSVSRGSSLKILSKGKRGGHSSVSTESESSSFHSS

Target: SDF-1/CXCR4 (Homo sapiens (Human), UniProt P61073)
Assay: IC50 vs SDF-1 (table of specific compounds)
Type: binding

IC50 [nM] | SMILES
10 | CCc1ccc(NCc2ccc(CNc3ccc(CC)cc3)cc2)cc1 [MSX-140]
1000 | c1ccc(OCc2ccc(COc3ccccc3)cc2)cc1 [MSX-210]
1000 | COc1cccc(NCc2ccc(CO)cc2)c1 [MSX-204]
100 | Fc1nc(F)nc(NCc2ccc(CNc3nc(F)nc(F)n3)cc2)n1 [MSX-191]
